Data from US4389408A, “Novel ampicillin esters and production thereof” (priority 1980, dated 1983).

Columns and labels:
[1] = type: in vitro ADME
Experimental: The procedure of (a) was repeated except that a basic aqueous medium (simulated intestinal juice) having a pH of 7.50 prepared by adding 35.8 g of disodium phosphate, 6.0 ml of 10% hydrochloric acid and 2.8 g of pancreatin to 1000 ml of water was used instead of the acidic aqueous medium.

[2] = type: in vitro ADME; remark: listed apart in the source
Experimental: Each of the test compounds was dissolved to a predetermined concentration in an acidic aqueous medium (simulated gastric juice) having a pH of 1.2 prepared by adding 2.0 g of sodium chloride, 24 ml of 10% hydrochloric acid and 3.2 g of pepsin to 1000 ml of water. While the solution was shaken at 37° C., it was periodically sampled. The sampled solution was subjected to high-speed liquid chromatography using a reversed phase partition column, and the hydrolysis ratio of the compound was determined from a decrease in the peak height of the compound in the chromatogram.

in vivo = conditions: mouse, mice, aqueous solution

With `Cc1oc(=O)oc1COC(=O)[C@@H]1N2C(=O)[C@@H](NC(=O)[C@H](N)c3ccccc3)[C@H]2SC1(C)C` [A, Ampicillin (5-methyl-2-oxo-1,3-dioxolen-4-yl)methyl ester hydrochloride] the “Rate of hydrolysis relative to that of Ampicillin phthalidyl ester” value [1] was “about one half”, the “Rate of hydrolysis relative to that of Ampicillin phthalidyl ester” value [2] was “about one half” and the LD50 (in vivo; intravenous) was 557 mg/kg. It also gave an LD50 (in vivo; ip, intraperitoneal) of 1430 mg/kg and an LD50 (in vivo; oral) of over 5000 mg/kg.

Structures can show the parent of a compound that is named as a salt. Where two headings read alike, the source gives them in different places.
